The source of these data is patent US9977024B2, “Targeted covalent probes and inhibitors of proteins containing redox-sensitive cysteines” (THE SCRIPPS RESEARCH INSTITUTE, priority 2012, dated 2018).

One data set deals with EGFR (Homo sapiens, UniProt P00533). Nature of the data set: Western blot of pEGFR in A431 cells under H2O2 stress or hypoxia. As to conditions: for dose dependence of EGFR inhibition: FIG. 15.
Data set [1] is described as follows: Plasma stability in mice (20 mg/kg IP).
Data set [2] is described as follows: Microsome stability, mouse liver microsomes.
Data set [3] is described as follows: Microsome stability, human liver microsomes.

In the case of `O=C1CC(=O)CC(C(=O)Nc2ccc3ncnc(Nc4cccc(Br)c4)c3c2)C1`, at EGFR (A431 cells, untreated vs H2O2 stress / hypoxia), the “redox dependence of pEGFR inhibition” value was “time-dependent inhibition and redox-modulated inhibition”. In addition, the “dose dependence of EGFR inhibition” value on EGFR is “dose-dependent”. In data set [1], the “Plasma Stability in Mice 1 h” value amounted to 11.6 µM, the “Plasma Stability in Mice 4 h” value was 2.6 µM, the “Plasma Stability in Mice 8 h” value was 0.48 µM and the “Plasma Stability in Mice 24 h” value is less than 0.022 µM. In data set [2], the “Microsome Stability Mouse Cl” value is “(42.1) μl/min/mg” and the “Microsome Stability Mouse t1/2” value is 16 min. For the same compound, in data set [3], the “Microsome Stability Human Cl” value is recorded as “(24.2) μl/min/mg” and the “Microsome Stability Human t1/2” value was determined as 29 min.

`O=C1CC(=O)C(CC(=O)Nc2ccc3ncnc(Nc4cccc(Br)c4)c3c2)C1` (stereo not shown): the “dose dependence of EGFR inhibition” value at EGFR is reported as “dose-dependent”. Further, the “affinity for EGFR by Western blot” value at EGFR (FIG. 15, increasing concentrations) was “higher affinity for EGFR compared to Compound 1a”. Further, in data set [1], the “Plasma Stability in Mice 1 h” value was determined as 14.7 µM, the “Plasma Stability in Mice 4 h” value is 1.1 µM, the “Plasma Stability in Mice 8 h” value turned out to be 0.18 µM and the “Plasma Stability in Mice 24 h” value is less than 0.022 µM. Further, in data set [2], the “Microsome Stability Mouse Cl” value is listed as “(11.8) μl/min/mg” and the “Microsome Stability Mouse t1/2” value amounted to 59 min. The “Microsome Stability Human Cl” value in data set [3] was “(6.3) μl/min/mg”.
